{"source": "patent US6825223B2", "about": "“Anilide compounds and pharmaceutical compositions comprising them” (Kowa Company, Ltd., priority 1996, dated 2004)", "target": "T1, ACAT in J774 cell (Mus musculus, UniProt Q61263)", "T1 construct": "J774 cell was cultured with DMEM culturing solution; endogenous in cells; host or cells: J774 cells", "T1 sequence (Q61263 1-540)": "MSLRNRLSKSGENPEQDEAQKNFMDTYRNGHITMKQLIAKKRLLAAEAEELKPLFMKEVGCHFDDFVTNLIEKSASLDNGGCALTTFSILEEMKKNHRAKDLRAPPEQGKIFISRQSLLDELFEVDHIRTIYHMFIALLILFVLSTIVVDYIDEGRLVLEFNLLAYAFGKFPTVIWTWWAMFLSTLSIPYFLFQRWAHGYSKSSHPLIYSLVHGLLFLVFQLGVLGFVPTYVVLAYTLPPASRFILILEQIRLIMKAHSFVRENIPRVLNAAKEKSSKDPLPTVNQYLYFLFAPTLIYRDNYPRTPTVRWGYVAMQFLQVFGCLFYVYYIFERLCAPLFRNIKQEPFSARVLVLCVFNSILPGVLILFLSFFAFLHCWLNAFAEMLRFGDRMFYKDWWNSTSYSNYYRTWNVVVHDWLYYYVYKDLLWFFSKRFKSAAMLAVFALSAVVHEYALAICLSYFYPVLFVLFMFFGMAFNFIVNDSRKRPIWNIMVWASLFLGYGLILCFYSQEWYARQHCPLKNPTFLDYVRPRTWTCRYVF", "test": "ACAT inhibiting activity in J774 cell (anti-foaming activity)", "assay_type": "cell-based", "conditions": "ratio of the two cell IC50 values"}
{"smiles": "CCCCCCCCCCCCCCSCC(=O)Nc1c(C(C)C)cccc1C(C)C", "note": "[Control (2), N-(2,6-diisopropylphenyl) -2-(tetradecylthio)acetamide, reference compound]", "values": [{"measurement": "IC50 (HepG 2)/IC50 (J 774)", "result": 9.33}]}
